## Apparent affinities of Ab-14 variants for a coronavirus HR2 peptide

The measurements come from Engelhart et al. 2022 (doi:10.1038/s41597-022-01779-4) through the FLAb antibody collection.

Target: peptide PDVDLGDISGINAS, taken from heptad repeat 2 (HR2) of SARS-CoV-2 spike.

The variants keep the light chain, the linker and the frameworks of Ab-14 (scFv order VH, the linker GGGGSGGGGSGGGGS, VL).
VH: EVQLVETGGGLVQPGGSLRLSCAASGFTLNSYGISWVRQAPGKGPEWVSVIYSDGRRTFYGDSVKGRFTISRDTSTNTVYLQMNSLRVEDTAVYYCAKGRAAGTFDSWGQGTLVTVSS
VL: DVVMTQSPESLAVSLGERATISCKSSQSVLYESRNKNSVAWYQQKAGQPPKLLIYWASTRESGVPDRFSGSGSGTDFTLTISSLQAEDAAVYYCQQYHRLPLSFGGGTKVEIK

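The parent was found by panning a naive human phage display library on the peptide. Library AAYL49 holds single substitutions and randomly drawn double and triple substitutions in the CDRs. The scFvs were displayed on barcoded MATa yeast, the peptide on MATalpha yeast. After mating in shaken culture at 30 °C for 16 h, diploids were selected and their barcode pairs sequenced. Scores were corrected for input abundance and mapped to Kd with protein pairs of known affinity run in the same pool. Mating was done three times.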

Changes read parent residue, position, new residue, counted from the first residue of the VH shown.
This list gathers variants with a substitution at F27 (VH, numbered from residue 1).
Values are log10 of the apparent Kd in nM; lower means stronger binding.
Replicates are averaged; those with no signal do not enter the mean.
"no signal" means that the variant was in the library but no mating with the target was seen in any replicate; the authors take this as a sign of poor binding, and no number exists.
Entries are sorted by rising average, undetected variants last.

* F27Y I34Y -> 0.19 (3 of 3 replicates)
* F27E T28M D106E -> 0.37 (3 of 3 replicates)
* G26S F27R S31D -> 0.98 (3 of 3 replicates)
* F27K T28L -> 1.68 (3 of 3 replicates)
* F27K G61T S107W -> 1.71 (3 of 3 replicates)
* F27V N30L -> 2.05 (2 of 3 replicates)
* G26K F27T D106F -> 2.10 (3 of 3 replicates)
* F27W T28L S107L -> 2.40 (3 of 3 replicates)
* F27Y S31K R100C -> 3.07 (3 of 3 replicates)
* F27L T58R F105Q -> 3.45 (3 of 3 replicates)
* F27L -> 3.59 (3 of 3 replicates)
* F27W R100M -> 3.66 (3 of 3 replicates)
* F27P L29P S107L -> 3.72 (1 of 3 replicates)
* F27Q L29C N30D -> 3.76 (2 of 3 replicates)
* F27G I51P D106E -> 3.78 (1 of 3 replicates)
* F27N L29C D62R -> 3.81 (1 of 3 replicates)
* F27W T58H D62N -> 3.94 (3 of 3 replicates)
* F27G S31T V50T -> 3.95 (3 of 3 replicates)
* F27Q I34Y G103H -> 4.27 (3 of 3 replicates)
* F27I Y32S V50H -> 4.65 (1 of 3 replicates)
* F27W S35R G99S -> 4.84 (1 of 3 replicates)
* F27K D54R G99D -> 4.85 (1 of 3 replicates)
* G26C F27Y G103E -> 4.87 (1 of 3 replicates)
* F27N S31D G55T -> 4.94 (1 of 3 replicates)
* F27W S31R G61Y -> 4.95 (2 of 3 replicates)
* F27L R56K V64P -> 5.04 (1 of 3 replicates)
* F27Q V50N G99L -> 5.21 (1 of 3 replicates)
* F27L G33K V64M -> no signal (0 of 3 replicates)
* F27I V50P D54M -> no signal (0 of 3 replicates)
* F27P G33S S53H -> no signal (0 of 3 replicates)
* F27W Y52P G55D -> no signal (0 of 3 replicates)
* F27C R57F V64C -> no signal (0 of 3 replicates)
* F27A I51T -> no signal (0 of 3 replicates)
* F27T N30H Y32C -> no signal (0 of 3 replicates)
* F27C S35A A102K -> no signal (0 of 3 replicates)
* F27M Y32I F59E -> no signal (0 of 3 replicates)
* F27L S35G K65D -> no signal (0 of 3 replicates)
* F27Q I34Q -> no signal (0 of 3 replicates)
* F27I N30C R57F -> no signal (0 of 3 replicates)
* F27T S31A D54W -> no signal (0 of 3 replicates)
* F27I V64G -> no signal (0 of 3 replicates)
* F27M Y52M S63Q -> no signal (0 of 3 replicates)
* F27W T58Q K65A -> no signal (0 of 3 replicates)
* F27I -> no signal (0 of 3 replicates)
* F27A D62E G103Q -> no signal (0 of 3 replicates)
* F27T G61A G103T -> no signal (0 of 3 replicates)
* F27W T28N F105C -> no signal (0 of 3 replicates)
* F27R S53N R100M -> no signal (0 of 3 replicates)
* F27L V50N S63A -> no signal (0 of 3 replicates)
* F27V S63A A102Q -> no signal (0 of 3 replicates)
* F27Y S31V G33T -> no signal (0 of 3 replicates)

From the list, the first 4 with no signal in any replicate:

- F27L G33K V64M -> no signal (0 of 3 replicates)
- F27I V50P D54M -> no signal (0 of 3 replicates)
- F27P G33S S53H -> no signal (0 of 3 replicates)
- F27W Y52P G55D -> no signal (0 of 3 replicates)

In this assay the parent's reference entry averaged 0.65; its copy inside this library read 4.11 (one replicate of three).
Three control strains display no target. For library AAYL49, 15% of the pairings with them gave a signal, with a median of 4.06 and one signal in twenty below 2.83, so weak values seen in few replicates may be background.